Results as given in PMC11676875, “In Vitro Screening of an In-House Library of Structurally Distinct Chemotypes Towards the Identification of Novel SARS-CoV-2 Inhibitors” (Pharmaceuticals, 2024).

Experiments:
SARS-CoV-2 = conditions: words in Figures 6 and 7
Vero E6 cells = experiment: Cytotoxicity assay (MTT) on Vero E6 cells; conditions: read-out: Vero E6 CC50, 72 h incubation

| SMILES | SAR analysis summary of anti-SARS-CoV-2 activity (SARS-CoV-2) | CC50 (Vero E6 cells) [µM] |
| --- | --- | --- |
| Cc1ccc2c(c1)nc(Cn1nnc3ccccc31)n2CCN(C)C | Inactive/ Cytotoxic | 37.7 |
| CN(C)CCn1c(Cn2nnc3ccccc32)nc2cc(Cl)ccc21 | Inactive/ Cytotoxic | 192 |

This is a selection: effects in other tests are not listed, and their absence says nothing.
